The test deals with T1, human MC-R1B receptor (Homo sapiens, UniProt Q01726, W317C).
T1 construct: Full-length cDNA encoding MC-R1B was isolated from human testis poly; expressed in transfected cells; host or cells: COS-7 (transient, electroporation of expression plasmid; pcDNA3 / pcDNA-3.1(-) vectors described for the clones)
T1 sequence (Q01726 with tags, fused parts or gaps): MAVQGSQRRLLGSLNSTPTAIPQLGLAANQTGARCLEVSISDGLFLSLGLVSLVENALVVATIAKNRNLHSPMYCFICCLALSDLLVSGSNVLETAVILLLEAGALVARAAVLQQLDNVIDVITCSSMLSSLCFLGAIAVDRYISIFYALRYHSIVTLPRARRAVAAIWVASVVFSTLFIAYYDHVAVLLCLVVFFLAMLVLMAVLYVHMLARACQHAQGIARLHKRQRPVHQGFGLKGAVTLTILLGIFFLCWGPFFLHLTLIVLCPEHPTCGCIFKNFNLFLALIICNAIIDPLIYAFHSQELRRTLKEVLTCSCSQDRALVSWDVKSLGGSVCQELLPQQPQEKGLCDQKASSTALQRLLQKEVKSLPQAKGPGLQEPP
As to the kind of experiment: Melanocortin radioligand binding assay ([125I]-NDP-αMSH displacement). Conditions: displacement of 200 pM [125I]-NDP αMSH from crude membranes of cells expressing human MC-R1B, 1 hour. The protocol: Filters were washed three times with TNE buffer (50 mM Tris pH 7.4, 5 mM EDTA, 150 mM NaCl), dried and counted using Microscint-20 in a Topcount scintillation counter (Packard).

This note sets out measurements from US6693184B1, “DNA molecules encoding splice variants of the human melanocortin 1 receptor protein” (Merck & Co., Inc., priority 1998, dated 2004).

In general, IC50 refers to the concentration that gives 50% inhibition. A higher IC50 goes with a need for much substance.

As to MT-II, the concentration for half-maximal inhibition (IC50) was 0.2 nM. In other words, the sub-nanomolar range.
